Residue numbers refer to the chain shown, from its start.
B1: 12A2: 12B6 homologue nanobody, SEQ ID NO: 71 (protein)
VHH: QVKLEESGGGLVQAGGALRLSCAASGRTFSYNPMGWFRQAPGKERDLVAAISRTGGSTYYPDSVEGRFTISRDNAKRMVYLQMNNLKPEDTAVYYCAAAGVRAEDGRVRTLPSEYTFWGQGTQVTVSS
B2: 12B6: anti-vWF nanobody, SEQ ID NO: 62 (protein)
VHH: B1 VHH with K3Q, E5V, L47V, P61A, D62R, N85A, T116N
B3: 12A2H4: humanised 12A2 nanobody, SEQ ID NO: 92 (protein)
VHH: EVQLVESGGGLVQPGGSLRLSCAASGRTFSYNPMGWFRQAPGKGRELVAAISRTGGSTYYPDSVEGRFTISRDNAKRSVYLQMNSLRAEDTAVYYCAAAGVRAEDGRVRTLPSEYTFWGQGTQVTVSS

How the values were obtained:
[1] = biological target: T1, vWF (Homo sapiens, UniProt P04275); test: Analysis in BIACORE for binding to vWF; conditions: for K-on and K-off rates compared among homologue nanobodies: nanobody 5 μg/ml
Experimental: vWF was covalently bound to the sensor chip surface via amine coupling. The CM5 surface of the chip was activated by the injection of EDC/NHS (1:1 mix of 0.4 M 1-ethyl-3-(3-dimethylaminopropyl)-carbodiimide and 0.1 M N-hydroxysuccinimide in water) for 7 minutes. Upon activation vWF was injected until an increase of 6000 response units was detected. The excess of reactive groups was deactivated with 1 M Ethanolamine-HCl (pH 8.5) for 7 minutes. The flowrate was kept constant during the immobilization procedure at 5 ul/min. The eluent buffer was 0.01 M HEPES (pH 7,4) with 0.15 M NaCl, 3 mM EDTA and 0.005% Surfactant P20.
The nanobodies 12B6 and 12A5 and their homologue proteins were analysed in BIACORE on vWF at a concentration of the nanobody of 5 μg/ml as shown in FIGS. 4 and 5.
From the set of curves that were generated for each nanobody, only those curves where equilibrium was reached, were used to derive the KD value via steady state affinity.

[2] = Stability at elevated temperatures: concentration of supernatant (OD280) after heating; assay type: physicochemical
[3] = biological target: T1, vWF; test: Stability at elevated temperatures: binding in ELISA to vWF after heating; assay type: physicochemical; conditions: 1 hour at different temperatures
Experimental: A stock solution of nanobodies at a concentration of 200 μg/ml in PBS was prepared and divided into several tubes. Each tube containing nanobody was incubated at different temperatures for 1 hour, then cooled at room temperature for 2 hours and put at 4° C. overnight. The next day, the samples were centrifuged for 30 minutes at 13000 rpm, and the supernatant was tested for OD280 nm. The concentration of supernatants were measured spectrophotometrically and expressed as a percentage of the concentration at room temperature.
The supernatants were also tested in ELISA for binding to vWF as described above in Example 3.
The supernatants were tested in ELISA for binding to vWF as described above in Example 3. The supernatants were applied starting at a 1/100 dilution and 1/5 dilutions were made in PBS. Results are shown in FIG. 12 (12B6), FIG. 13 (12A2) and FIG. 14 (12A5).

[4] = system: baboon vWF; test: Cross-reactivity ELISA with vWF from plasma of other species (baboon); assay type: binding; conditions: nanobody 10 μg/ml
Experimental: (§1) A microtiterplate was coated with mouse anti-myc at 1/1000 overnight at 4° C. The plate was washed with PBS-Tween and blocked for two hours at room temperature with PBS-1% casein. After washing, the nanobodies were applied at a concentration of 10 μg/ml in PBS. After a one hour incubation period, the plates were washed and plasma (dog, pig, human, baboon and cynomologues monkey) was applied starting at a five-fold dilution and making further two-fold dilutions in PBS. The plates were incubated for 1 hour at room temperature. The plates were washed and polyclonal anti-vWF-HRP (DAKO) was applied at a 2000-fold dilution for one hour at room temperature. The plates were washed and ABTS/H2O2 substrate was applied. The OD 405 nm was measured.

[5] = system: cynomologues monkey vWF; test: Cross-reactivity ELISA with vWF from plasma of other species (cynomologues monkey); assay type: binding; conditions: nanobody 10 μg/ml
Experimental: as §1

[6] = biological target: T2, pig vWF (Sus scrofa, UniProt Q28833); test: Cross-reactivity ELISA with vWF from plasma of other species (pig); assay type: binding; conditions: nanobody 10 μg/ml
T2 construct: plasma (dog, pig, human, baboon and cynomologues monkey) was applied; from tissue; host or cells: pig plasma
Experimental: as §1

[7] = biological target: T1, vWF; test: Cross-reactivity ELISA with vWF from plasma of other species (human); assay type: binding; parameters: plasma (dog, pig, human, baboon and cynomologues monkey) was applied; from tissue; host or cells: human plasma; conditions: nanobody 10 μg/ml
Experimental: as §1

[8] = biological target: T1, vWF; test: Binding of nanobodies to vWF in ELISA
[9] = real KD determination, range of nanobody concentrations, Table 14
[10] = 37° C., percentage of the concentration at room temperature, Table 30
[11] = 50° C., percentage of the concentration at room temperature, Table 30
[12] = 60° C., percentage of the concentration at room temperature, Table 30
[13] = 70° C., percentage of the concentration at room temperature, Table 30
[14] = 80° C., percentage of the concentration at room temperature, Table 30
[15] = 90° C., percentage of the concentration at room temperature, Table 30
[16] = RT, OD280 nm concentration of supernatant as percentage of the concentration at room temperature, Table 30

| Molecule | Koff ([1]; estimated value, Table 13) | Kon ([1]; estimated value, Table 13) | K-on and K-off rates compared among homologue nanobodies [1] | Koff [1, 9] | Kon [1, 9] | Concentration after heating at increasing temperatures ([2]; 37° C., Table 16) | Concentration after heating at increasing temperatures [2, 10] | Concentration after heating at increasing temperatures ([2]; 50° C., Table 16) | Concentration after heating at increasing temperatures [2, 11] | Concentration after heating at increasing temperatures ([2]; 60° C., Table 16) | Concentration after heating at increasing temperatures [2, 12] | Concentration after heating at increasing temperatures ([2]; 70° C., Table 16) | Concentration after heating at increasing temperatures [2, 13] | Concentration after heating at increasing temperatures ([2]; 80° C., Table 16) | Concentration after heating at increasing temperatures [2, 14] | Concentration after heating at increasing temperatures ([2]; 90° C., Table 16) | Concentration after heating at increasing temperatures [2, 15] | Concentration after heating at increasing temperatures ([2]; RT, Table 16) | Concentration after heating at increasing temperatures [2, 16] | stability at elevated temperatures (binding to vWF in ELISA after heating) [3] | also measured |
| --- | --- | --- | --- | --- | --- | --- | --- | --- | --- | --- | --- | --- | --- | --- | --- | --- | --- | --- | --- | --- | --- |
| B1 | 0.00349 s⁻¹ | 1.11e+06 M⁻¹ s⁻¹ | best K-on rate | 0.0099 s⁻¹ | 2.24e+06 M⁻¹ s⁻¹ | 106 | 106% | 104 | 104% | 100 | 100% | 93 | 93% | 87 | 87% | 90 | 90% | 100 | 100% | very stable at elevated temperatures | Concentration after heating at increasing temperatures ([2]; 37° C., Table 21): 106; Concentration after heating at increasing temperatures ([2]; 50° C., Table 21): 104; Concentration after heating at increasing temperatures ([2]; 60° C., Table 21): 100; Concentration after heating at increasing temperatures ([2]; 70° C., Table 21): 93; Concentration after heating at increasing temperatures ([2]; 80° C., Table 21): 87; Concentration after heating at increasing temperatures ([2]; 90° C., Table 21): 90; Concentration after heating at increasing temperatures ([2]; RT, Table 21): 100; cross-reactivity with baboon vWF [4]: cross-reactive; cross-reactivity with cynomologues monkey vWF [5]: cross-reactive; cross-reactivity with pig vWF [6]: cross-reactive; cross-reactivity with human vWF [7]: cross-reactive |
| B2 | 0.00597 s⁻¹ | 2.55e+06 M⁻¹ s⁻¹ | best K-on rate | 0.01003 s⁻¹ | 2.28e+06 M⁻¹ s⁻¹ | 97 | – | 100 | – | 104 | – | 94 | – | 91 | – | 68 | – | 100 | – | very stable at elevated temperatures | Concentration after heating at increasing temperatures ([2]; 37° C., Table 20): 97; Concentration after heating at increasing temperatures ([2]; 37° C., percentage of the concentration at room temperature, Table 26): 97%; Concentration after heating at increasing temperatures ([2]; 50° C., Table 20): 100; Concentration after heating at increasing temperatures ([2]; 50° C., percentage of the concentration at room temperature, Table 26): 100%; Concentration after heating at increasing temperatures ([2]; 60° C., Table 20): 104; Concentration after heating at increasing temperatures ([2]; 60° C., percentage of the concentration at room temperature, Table 26): 104%; Concentration after heating at increasing temperatures ([2]; 70° C., Table 20): 94; Concentration after heating at increasing temperatures ([2]; 70° C., percentage of the concentration at room temperature, Table 26): 94%; Concentration after heating at increasing temperatures ([2]; 80° C., Table 20): 91; Concentration after heating at increasing temperatures ([2]; 80° C., percentage of the concentration at room temperature, Table 26): 91%; Concentration after heating at increasing temperatures ([2]; 90° C., Table 20): 68; Concentration after heating at increasing temperatures ([2]; 90° C., percentage of the concentration at room temperature, Table 26): 68%; Concentration after heating at increasing temperatures ([2]; RT, Table 20): 100; Concentration after heating at increasing temperatures ([2]; RT, OD280 nm concentration of supernatant as percentage of the concentration at room temperature, Table 26): 100%; cross-reactivity with baboon vWF [4]: cross-reactive; cross-reactivity with cynomologues monkey vWF [5]: cross-reactive; cross-reactivity with pig vWF [6]: cross-reactive; cross-reactivity with human vWF [7]: cross-reactive |
| B3 | – | – | – | – | – | – | 100% | – | 101% | – | 100% | – | 99% | – | 90% | – | 83% | – | 100% | – | binding to vWF in ELISA [8]: bind very well |

— US7807162B2, “Single domain VHH antibodies against von Willebrand factor” (Ablynx N.V., priority 2005, dated 2010)
